Experimental data published in patent US20130210899A1, “Method and Therapeutic for the Treatment and Regulation of Memory Formation” (The Regents of the University of California, priority 2010, published 2013).

Target: T1, HDAC3 (Mus musculus, UniProt O88895)
T1 construct: from tissue; host or cells: dorsal hippocampus of C57BL/6 mice
T1 sequence (O88895 1-428): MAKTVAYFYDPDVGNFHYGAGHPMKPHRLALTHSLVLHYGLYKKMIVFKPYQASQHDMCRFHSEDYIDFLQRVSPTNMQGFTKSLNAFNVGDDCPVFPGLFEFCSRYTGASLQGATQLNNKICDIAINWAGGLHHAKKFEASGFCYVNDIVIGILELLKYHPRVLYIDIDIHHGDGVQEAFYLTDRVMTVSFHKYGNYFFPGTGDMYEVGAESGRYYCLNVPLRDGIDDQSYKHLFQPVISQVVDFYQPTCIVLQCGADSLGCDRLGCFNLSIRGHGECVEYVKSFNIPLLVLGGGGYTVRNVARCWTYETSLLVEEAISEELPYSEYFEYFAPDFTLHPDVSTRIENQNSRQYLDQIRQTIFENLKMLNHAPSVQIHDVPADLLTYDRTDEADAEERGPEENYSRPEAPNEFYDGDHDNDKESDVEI
Assay: Immunohistochemistry of dorsal hippocampus 2 hours after intrahippocampal infusion
Assay type: in vivo, C57BL/6 mice
Details: 1.25 ng/side intrahippocampal infusion
Method: Two weeks after mice were infused with AAV-Cre or two hours after hippocampal infusion of the inhibitor, mice were anesthetized deeply with sodium pentobarbital (100 mg/kg, i.p.) and perfused transcardially with ice-cold PBS, pH 7.4, followed by ice-cold 4% paraformaldehyde in PBS, pH 7.4, using a peristaltic perfusion pump (Fisher Scientific). The brains were removed, postfixed overnight at 4° C., and then transferred to 30% sucrose for 48 hr at 4° C. Brains were frozen and cryocut to 20 μm coronal slices, and sections were stored in 0.1M PBS. Floating sections were rinsed in 0.1% Triton X-100 (Fisher Scientific) in PBS, rinsed in PBS, and then blocked for 1 hr at room temperature in 8% normal goat serum (NGS, Jackson ImmunoResearch Laboratories) with 0.3% Triton X-100 in PBS. Sections were rinsed in PBS and for single labeling they were incubated overnight at 4° C. in 2% NGS, 0.3% Triton X-100 in PBS with primary antibody. The sections were then rinsed in PBS and incubated for 2 hr at room temperature with goat anti-rabbit IgG-FITC secondary antibody (1:1000, Millipore Bioscience International). […]
Images were acquired and using an Olympus (BX51, Japan) microscope using a 4× or 20× objective, CCD camera (QImaging), and QCapture Pro 6.0 software (QImaging) and quantified with ImageJ software (NIH). […]

## Cc1ccc(C(=O)NCCCCCC(=O)Nc2ccc(F)cc2N)cc1 [RGFP136, N-(6-(2-amino-4-fluorophenylamino)-6-oxohexyl)-4-methylbenzamide]
  HDAC3 nuclear immunoreactivity vs vehicle: similar
